The values that follow come from patent US11111233B2, “Amino pyrimidine compound for inhibiting protein tyrosine kinase activity” (Shenzhen TargetRx, Inc., priority 2016, dated 2021).

Experiment [1] has as its target EGFR [L858R/T790M] (Homo sapiens (Human), UniProt P00533, L858R/T790M). Put plainly: Kinase inhibition assay (HTRF), EGFR [L858R/T790M]. The settings on record: HTRF Kinase TK kit, 10 min pre-incubation, 20 min reaction. The experiment is classed as biochemical.
Experiment [2] concerns the target WT EGFR (Homo sapiens (Human), UniProt P00533). Briefly: Kinase inhibition assay (HTRF), WT EGFR. The experiment is classed as biochemical. The settings on record: HTRF Kinase TK kit, 10 min pre-incubation, 20 min reaction.

Consider “N-(2-(4-ethoxypiperidin)-1-yl)-5-((4-(4-fluoro-1-isopropyl-2-methyl-1H-benzo[d]imidazole-6-yl)pyrimidin-2-yl)amino)-4-methoxyphenyl)acrylamide [Example 14]”, for which the figures for the IC50 in experiment [1] and in experiment [2] were 0.001 to 0.05 µM and above 0.1 µM, respectively.
